# In patent US6962920B2, “Pyrimidine derivatives and methods of making and using these derivatives” (Duquesne University of the Holy Ghost, priority 1992, dated 2005):
# Sequences of proteins named here, by UniProt entry; tags and fusion partners are left off.
# UniProt Q920D2, whole entry: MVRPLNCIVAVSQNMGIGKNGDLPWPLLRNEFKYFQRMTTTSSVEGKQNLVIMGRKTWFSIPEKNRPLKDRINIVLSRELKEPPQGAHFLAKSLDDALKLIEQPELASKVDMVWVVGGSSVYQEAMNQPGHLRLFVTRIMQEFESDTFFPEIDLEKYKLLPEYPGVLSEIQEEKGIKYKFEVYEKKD
# Legend:
# MDA-N = assay: NCI in vitro anti-cancer activity, Breast Cancer; conditions: Table 31, Breast Cancer
# MDA-MB-435 = assay: NCI in vitro anti-cancer activity, Breast Cancer; conditions: Table 31, Breast Cancer
# HS 578T = assay: NCI in vitro anti-cancer activity, Breast Cancer; conditions: Table 31, Breast Cancer
# MCF7 = assay: NCI in vitro anti-cancer activity, Breast Cancer; conditions: Table 31, Breast Cancer
# BT-549 = assay: NCI in vitro anti-cancer activity, Breast Cancer; conditions: Table 31, Breast Cancer
# MDA-MB-231/ATCC = assay: NCI in vitro anti-cancer activity, Breast Cancer; conditions: Table 31, Breast Cancer
# PC-3 = assay: NCI in vitro anti-cancer activity, Prostate Cancer; conditions: Table 31, Prostate Cancer
# DU-145 = assay: NCI in vitro anti-cancer activity, Prostate Cancer; conditions: Table 31, Prostate Cancer
# SK-MEL-5 = assay: NCI in vitro anti-cancer activity, Melanoma; type: cell-based; conditions: Table 31, Melanoma
# MALME-3M = assay: NCI in vitro anti-cancer activity, Melanoma; conditions: Table 31, Melanoma
# M14 = assay: NCI in vitro anti-cancer activity, Melanoma; conditions: Table 31, Melanoma
# UACC-257 = assay: NCI in vitro anti-cancer activity, Melanoma; conditions: Table 31, Melanoma
# SK-MEL-2 = assay: NCI in vitro anti-cancer activity, Melanoma; conditions: Table 31, Melanoma
# LOX IMVI = assay: NCI in vitro anti-cancer activity, Melanoma; conditions: Table 31, Melanoma
# UACC-62 = assay: NCI in vitro anti-cancer activity, Melanoma; conditions: Table 31, Melanoma
# SK-MEL-28 = assay: NCI in vitro anti-cancer activity, Melanoma; conditions: Table 31, Melanoma
# K-562 = assay: NCI in vitro anti-cancer activity; conditions: Table 31, Leukemia
# 786-0 = assay: NCI in vitro anti-cancer activity, Renal Cancer; conditions: Table 31, Renal Cancer
# CAKI-1 = assay: NCI in vitro anti-cancer activity, Renal Cancer; conditions: Table 31, Renal Cancer
# ACHN = assay: NCI in vitro anti-cancer activity, Renal Cancer; conditions: Table 31, Renal Cancer
# RXF 393 = assay: NCI in vitro anti-cancer activity, Renal Cancer; conditions: Table 31, Renal Cancer, RXF 393
# TK-10 = assay: NCI in vitro anti-cancer activity, Renal Cancer; conditions: Table 31, Renal Cancer
# UO-31 = assay: NCI in vitro anti-cancer activity, Renal Cancer; conditions: Table 31, Renal Cancer
# RL DHFR = RL DHFR (Rattus norvegicus, UniProt Q920D2); assay: Inhibition of DHFR from rat liver; type: biochemical; conditions: @ 10 μM
# EKVX = assay: NCI in vitro anti-cancer activity, Non-Small Cell Lung Cancer; conditions: Table 31, Non-Small Cell Lung Cancer
# NCI-H23 = assay: as above; conditions: Table 31, Non-Small Cell Lung Cancer
# A549/ATCC = assay: as above; conditions: Table 31, Non-Small Cell Lung Cancer
# NCI-H226 = assay: as above; conditions: Table 31, Non-Small Cell Lung Cancer
# HOP-92 = assay: as above; conditions: Table 31, Non-Small Cell Lung Cancer
# HOP-62 = assay: as above; conditions: Table 31, Non-Small Cell Lung Cancer
# NCI-H522 = assay: as above; conditions: Table 31, Non-Small Cell Lung Cancer
# SNB-19 = assay: NCI in vitro anti-cancer activity, CNS Cancer; conditions: Table 31, CNS Cancer
# SNB-75 = assay: NCI in vitro anti-cancer activity, CNS Cancer; conditions: Table 31, CNS Cancer, SNB-75
# SF-268 = assay: NCI in vitro anti-cancer activity, CNS Cancer; conditions: Table 31, CNS Cancer
# SF-295 = assay: NCI in vitro anti-cancer activity, CNS Cancer; conditions: Table 31, CNS Cancer
# SF-539 = assay: NCI in vitro anti-cancer activity, CNS Cancer; conditions: Table 31, CNS Cancer
# U251 = assay: NCI in vitro anti-cancer activity, CNS Cancer; conditions: Table 31, CNS Cancer
# RPMI-8226 = assay: NCI in vitro anti-cancer activity, Leukemia; conditions: Table 31, Leukemia
# HL-60 (TB) = assay: NCI in vitro anti-cancer activity, Leukemia; conditions: Table 31, Leukemia
# MOLT-4 = assay: NCI in vitro anti-cancer activity, Leukemia; conditions: Table 31, Leukemia
# CCRF-CEM = assay: NCI in vitro anti-cancer activity, Leukemia; conditions: Table 31, Leukemia, CCRF-CEM
# SR = assay: NCI in vitro anti-cancer activity, Leukemia; conditions: Table 31, Leukemia
# KM12 = assay: NCI in vitro anti-cancer activity, Colon Cancer; conditions: Table 31, Colon Cancer
# HT29 = assay: NCI in vitro anti-cancer activity, Colon Cancer; conditions: Table 31, Colon Cancer
# SW-620 = assay: NCI in vitro anti-cancer activity, Colon Cancer; conditions: Table 31, Colon Cancer
# HCT-15 = assay: NCI in vitro anti-cancer activity, Colon Cancer; conditions: Table 31, Colon Cancer
# HCC-2998 = assay: NCI in vitro anti-cancer activity, Colon Cancer; conditions: Table 31, Colon Cancer
# HCT-116 = assay: NCI in vitro anti-cancer activity, Colon Cancer; conditions: Table 31, Colon Cancer
# COLO 205 = assay: NCI in vitro anti-cancer activity, Colon Cancer; conditions: Table 31, Colon Cancer
# OVCAR-8 = assay: NCI in vitro anti-cancer activity, Ovarian Cancer; conditions: Table 31, Ovarian Cancer
# IGROV1 = assay: NCI in vitro anti-cancer activity, Ovarian Cancer; conditions: Table 31, Ovarian Cancer
# SK-OV-3 = assay: NCI in vitro anti-cancer activity, Ovarian Cancer; conditions: Table 31, Ovarian Cancer
# OVCAR-4 = assay: NCI in vitro anti-cancer activity, Ovarian Cancer; conditions: Table 31, Ovarian Cancer
# OVCAR-5 = assay: NCI in vitro anti-cancer activity, Ovarian Cancer; conditions: Table 31, Ovarian Cancer
# OVCAR-3 = assay: NCI in vitro anti-cancer activity, Ovarian Cancer; conditions: Table 31, Ovarian Cancer
# NCI-H460 = assay: NCI in vitro anti-cancer activity, Non-Small Cell Lung Cancer; type: cell-based; conditions: Table 31, Non-Small Cell Lung Cancer
# NCI/ADR-RES = assay: NCI in vitro anti-cancer activity, breast cancer; conditions: Table 31, Breast Cancer, NCI/ADRRES
smiles,measurement,setting,value
Nc1nc(N)c2c(CNc3ccc4c(c3)Cc3ccccc3-4)coc2n1,GI50,MDA-N,> 100 µM
same,GI50,MDA-MB-435,> 100 µM
same,GI50,HS 578T,> 100 µM
same,GI50,MCF7,> 100 µM
same,GI50,BT-549,> 100 µM
same,GI50,MDA-MB-231/ATCC,> 100 µM
same,GI50,PC-3,> 100 µM
same,GI50,DU-145,> 100 µM
same,GI50,SK-MEL-5,> 100 µM
same,GI50,MALME-3M,> 100 µM
same,GI50,M14,> 100 µM
same,GI50,UACC-257,> 100 µM
same,GI50,SK-MEL-2,> 100 µM
same,GI50,LOX IMVI,> 100 µM
same,GI50,UACC-62,> 100 µM
same,GI50,SK-MEL-28,> 100 µM
same,GI50,K-562,> 100 µM
same,GI50,786-0,> 100 µM
same,GI50,CAKI-1,> 100 µM
same,GI50,ACHN,> 100 µM
same,GI50,RXF 393,> 100 µM
same,GI50,TK-10,> 100 µM
same,GI50,UO-31,> 100 µM
same,% inhibition RL DHFR,RL DHFR,40% @ 10 μM
same,GI50,EKVX,> 100 µM
same,GI50,NCI-H23,> 100 µM
same,GI50,A549/ATCC,> 100 µM
same,GI50,NCI-H226,> 100 µM
same,GI50,HOP-92,> 100 µM
same,GI50,HOP-62,> 100 µM
same,GI50,NCI-H522,> 100 µM
same,GI50,SNB-19,> 100 µM
same,GI50,SNB-75,> 100 µM
same,GI50,SF-268,> 100 µM
same,GI50,SF-295,> 100 µM
same,GI50,SF-539,> 100 µM
same,GI50,U251,> 100 µM
same,GI50,RPMI-8226,> 100 µM
same,GI50,HL-60 (TB),> 100 µM
same,GI50,MOLT-4,> 100 µM
same,GI50,CCRF-CEM,> 100 µM
same,GI50,SR,> 100 µM
same,GI50,KM12,> 100 µM
same,GI50,HT29,> 100 µM
same,GI50,SW-620,> 100 µM
same,GI50,HCT-15,> 100 µM
same,GI50,HCC-2998,> 100 µM
same,GI50,HCT-116,> 100 µM
same,GI50,COLO 205,> 100 µM
same,GI50,OVCAR-8,> 100 µM
same,GI50,IGROV1,> 100 µM
same,GI50,SK-OV-3,> 100 µM
same,GI50,OVCAR-4,> 100 µM
same,GI50,OVCAR-5,> 100 µM
same,GI50,OVCAR-3,> 100 µM
same,GI50,NCI-H460,> 100 µM
same,GI50,NCI/ADR-RES,> 100 µM
